Measured values from US6121252A, “Phosphinic acid derivatives” (priority 1998, dated 2000).

Amino acid sequences for entries named in this document (tags omitted).
UniProt P70627, whole entry: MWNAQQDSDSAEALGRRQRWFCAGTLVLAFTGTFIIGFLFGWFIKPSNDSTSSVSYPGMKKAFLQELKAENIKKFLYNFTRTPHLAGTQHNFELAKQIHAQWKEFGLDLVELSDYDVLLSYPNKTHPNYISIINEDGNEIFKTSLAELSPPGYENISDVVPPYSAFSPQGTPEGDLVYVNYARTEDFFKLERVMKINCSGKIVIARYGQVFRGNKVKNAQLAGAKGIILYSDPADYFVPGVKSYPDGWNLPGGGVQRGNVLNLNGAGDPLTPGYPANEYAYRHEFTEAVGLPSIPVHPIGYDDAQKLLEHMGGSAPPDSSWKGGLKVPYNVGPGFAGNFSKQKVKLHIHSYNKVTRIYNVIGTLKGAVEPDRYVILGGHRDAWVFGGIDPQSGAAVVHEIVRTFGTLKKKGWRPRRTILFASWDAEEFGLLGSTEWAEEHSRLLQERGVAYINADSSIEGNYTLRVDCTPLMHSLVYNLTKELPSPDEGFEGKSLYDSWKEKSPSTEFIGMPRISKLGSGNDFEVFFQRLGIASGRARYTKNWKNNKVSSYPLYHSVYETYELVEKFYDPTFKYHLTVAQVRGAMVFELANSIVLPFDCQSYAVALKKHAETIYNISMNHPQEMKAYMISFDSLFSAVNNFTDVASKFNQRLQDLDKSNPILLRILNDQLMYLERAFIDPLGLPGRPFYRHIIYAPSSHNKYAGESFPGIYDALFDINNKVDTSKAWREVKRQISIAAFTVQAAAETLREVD

Target: T1, NAALADase (Rattus norvegicus, UniProt P70627)
T1 construct: synaptosomal protein; from tissue; host or cells: synaptosomes (brain tissue)
Test: In vitro inhibition of NAALADase activity
Type: biochemical
Text: "Inhibition", in the context of enzymes, refers to reversible enzyme inhibition such as competitive, uncompetitive and non-competitive inhibition. Competitive, uncompetitive and non-competitive inhibition can be distinguished by the effects of an inhibitor on the reaction kinetics of an enzyme. […] The affinity between the inhibitor and the enzyme may be measured by the inhibitor constant, Ki, which is defined as: [formula] wherein [E] is the concentration of the enzyme, [I] is the concentration of the inhibitor, and [EI] is the concentration of the enzyme-inhibitor complex formed by the reaction of the enzyme with the inhibitor. Unless otherwise specified, Ki as used herein refers to the affinity between the inventive compounds and NAALADase.
Various compounds of formula I were tested for in vitro inhibition of NAALADase activity.
Substrate and product were resolved by anion-exchange liquid chromatography. […] Quisqualate (100 μM) was included in parallel assay tubes to confirm the specificity of the measurements.

Ki: 6.3 nM
Structure (SMILES): O=C(O)CCC(CP(=O)(O)CNc1ccccc1)C(=O)O (stereo not shown)
